Type in all cases: cell-based, human
In assay [1] the test system is EGFR, HER2, HER3 and phosphorylated forms in PC9ER and H1975 cells. The assay is described as follows: Western blot after long-term exposure to anti-EGFR mAb. Conditions: resistant cell lines. The protocol:
Western blot analysis—Cells were grown under specified conditions or treated as indicated. Following the cells were washed twice with cold PBS and scraped into lysis buffer [50 mM Hepes (pH 7.5), 10% glycerol, 150 mM NaCl, 1% Triton X-100, 1 mM EDTA, 1 mM EGTA, 10 mM NaF, 0.1 mM Na3VO4, and a complete protease inhibitor cocktail]. Thereafter, lysates were centrifuged at 14,000 g for 15 minutes at 4° C. The supernatant was used for subsequent procedures. Western blot analyses were conducted following protein separation using gel electrophoresis and transfer to nitrocellulose membranes. Immunoblotting was performed according to the antibody manufacturers' recommendation. Blocking was done using 5% milk in PBST (0.5% Tween20 Sigma Cat#P9416). Antibody binding to membrane blots was detected using horseradish peroxidase—secondary antibodies (Jackson ImmunoResearch Laboratories), followed by treatment with ECL Western blotting detection reagents (GE Healthcare).

The next assay has as its system PC9ER cells. In words: MTT cell survival assay. Conditions: 3 days treatment with increasing doses; EGFR T790M. Here is the method: (§1) Cell cultures—The H1975 (ATCC; NCI-H1975_CRL-5908) lung cancer cell line (EGFR mutations: L858R and T790M, ATCC; Rockville, Md.), PC9 and erlotinib-resistant PC9ER lung cancer cells (de1746-750+T790M) (described in 16) were maintained in RPMI-1640 supplemented with 10% FCS (Life technology) and antibiotics. PC9ER cells resistant to AZD-9291, denoted as PC9ER-AZDR cells, were generated by incubating PC9ER cells with AZD-9291 for three months. The dose, initially provided at 0.5 nM, was increased every 4 days per 1.5 fold up to 2.5 μM. NL20 (ATCC; NL20_CRL-2503), an immortalized human bronchial epithelial cell line (ATCC, Rockville, Md.) was maintained in F12K medium as recommended by the ATCC. Co-cultures in a ratio of 1:1 of WI38 (ATCC; CCL-75) and PC9ER or H1975 cells were maintained in DME medium supplemented with sodium pyruvate and fetal calf serum (FCS 5%; Life Technology).
(§2) Cell growth and survival—Cell survival was assessed using the 3-(4,5-dimethylthiazol-2-yl)-2,5 diphenyl tetrazolium bromide (MTT) assay (Sigma Cat#M2003). Cells were plated on 96-wells plates (2,000 cells/well) in triplicates. The medium was changed the following day and cells were treated as indicated. Following 3-4 days of incubation, MTT reagent was added to the cells for one hour followed by dissolving of the formazan crystals in SDS-DMF solution. Absorbance was measured using a microplate reader, Biorad Model 680, at 570 nm.

In the next assay the test system is H1975 cells. The assay is described as follows: MTT cell survival assay. Conditions: 3 days treatment with increasing doses; EGFR T790M. Here is the method: as §1, §2
The next assay relates to PC9 cells. In words: MTT cell survival assay. The note with it: 3 days treatment with increasing doses. Here is the method:
as §1, §2

Another assay deals with HER2 promoter. In words: Luciferase promoter reporter assay. Conditions: PC9ER and H1975 cells transfected with promoter-reporter plasmids. The text has this:
(§3) Luciferase promoter reporter assay—Plasmids containing the HER2 (pNeuLite) or HER3 (HPRM23883) promoter regions were purchased, respectively, from Addgene and Genecopeia. The HER2 promoter region was amplified by PCR using Pfu-Turbo DNA polymerase (Stratagene) with the primer sequences: Forward: 5′-[…]-3′ (SEQ ID NO: 13) and Reverse: 5′-[…]-3′ (SEQ ID NO: 14), and cloned in pGM3-Basic-Vector (Promega) (pHER2-prom-LucFF). The HER3 promoter region was cloned into the pGM3-Basic-Vector using BglII and HindIII restriction enzymes (pHER3-prom-LucFF). Renilla luciferase coding region from the pRL plasmid (Promega) cloned into the 3′ of mCherry coding region of the pmCherry-C1 vector (pmCheRNL) was a kind gift from Dr. Andrea Levi. The PC9ER and H1975 cell lines were co-transfected using Lipofectamine2000 (Invitrogen) with pHER2-prom-LucFF and pmCheRNL or pHER3-prom-LucRNL and pmCheRNL. Cells co-transfected with pmCheRNL and pGL3-Control-Vector (Promega) or pGL3-Basic-Vector served, respectively, as positive and negative controls. Cells were then selected for 3 weeks with puromycin (1 μg/ml). Stably co-transfected derivative cell lines were then treated with mAb 565 or Cetuximab. […] Luciferase activity was measured using VictorX Luminometer (Promega) and the Dual-Luciferase Reporter Assay (Promega).
(A reporter such as luciferase makes a cellular process visible.)

The next assay has as its system HER3 promoter. In words: Luciferase promoter reporter assay. The note with it: PC9ER and H1975 cells transfected with promoter-reporter plasmids.
From the text: as §3

As to cetuximab, the “HER2 and HER3 and their active tyrosine phosphorylated forms” value in assay [1] was “up-regulation”. For the same substance, in assay [1], the “expression levels of EGFR” value is listed as “gradual decrease”. Besides, the cell survival result is “exhibited resistance” in the assay on PC9ER cells, “exhibited resistance” in the assay on H1975 cells and “weakly inhibited” with PC9 cells. In addition, in the assay with HER2 promoter, the HER2 promoter activity entry is recorded as “strongly increases”. For the same substance, the HER3 promoter activity entry in the assay with HER3 promoter is reported as “weakly increases”.

These data come from patent US10011659B2, “Compositions and methods for treating cancer resistant to a tyrosine kinase inhibitor (TKI)” (Yeda Research and Development Co. Ltd., priority 2014, dated 2018).
